Data: PMC12810918, “Arginine metabolism has a pivotal function for the encystation of Giardia duodenalis” (PLOS Pathogens, 2026)

Test system: N=C(N)NCCC[C@H](N)C(=O)O
Test: purified protein
Conditions: 40 mM Hepes pH 7.0, 0-20 mM arginine

Substance: ADIAI (recombinant ADI, assemblage AI, isolate WB C6) (Giardia lamblia ATCC 50803)
- Km: 470 ± 30 µM
- kcat: 5.57 ± 2.02 s⁻¹
